From ChEMBL document CHEMBL3763149, “A FRET-Based Assay for the Identification and Characterization of Cereblon Ligands” (J Med Chem, 2016)

Key:
[1] = molecular target: T1, Cereblon isoform 4 (Magnetospirillum gryphiswaldense, UniProt A4TVL0, Y101F); assay: Inhibition of MANT-uracil binding to Magnetospirillum gryphiswaldense cereblon isoform 4 Y101F mutant by Cheng-Prusoff equation analysis
[2] = molecular target: T1, Cereblon isoform 4; assay: Inhibition of MANT-uracil binding to Magnetospirillum gryphiswaldense cereblon isoform 4 Y101F mutant by FRET assay
[3] = molecular target: T2, Cereblon isoform 4 (Magnetospirillum gryphiswaldense, UniProt A4TVL0); assay: Inhibition of MANT-uracil binding to wild type Magnetospirillum gryphiswaldense cereblon isoform 4 by FRET assay
T2 sequence (A4TVL0 whole entry): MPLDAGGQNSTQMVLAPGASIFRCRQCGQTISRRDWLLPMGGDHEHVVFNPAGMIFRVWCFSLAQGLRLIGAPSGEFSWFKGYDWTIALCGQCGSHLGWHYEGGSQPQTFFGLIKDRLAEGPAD

## O=C1CCC(N2C(=O)c3ccccc3C2=O)C(=O)N1 (racemic) [THALIDOMIDE]
[1]
  Ki: 9.6 µM
[2]
  IC50: 10.7 µM
[3]
  IC50: 7.8 µM
